# Data: ChEMBL document CHEMBL1144321, “Synthesis and evaluation of novel peripherally restricted kappa-opioid receptor agonists” (Bioorg Med Chem Lett, 2005)
# What was measured:
# [1] = target: Opioid receptors; mu & kappa (Homo sapiens) (UniProt P41145+P35372); assay: Selectivity ratio of inhibition of kappa opioid receptor to that of mu receptor was determined
# [2] = target: Opioid receptors; delta & kappa (Homo sapiens) (UniProt P41145+P41143); assay: Selectivity ratio of inhibition of kappa opioid receptor to that of delta receptor was determined
SMILES,Ratio [1],Ratio [2]
CN(C(=O)Cc1ccc(C(F)(F)F)cc1)[C@H](CN1CCCC1)c1cccc(N)c1,110,130
COc1cccc(C(CN2CCCC2)N(C)C(=O)Cc2ccc(C(F)(F)F)cc2)c1 (racemic),870,> 1000
CN(C(=O)Cc1ccc(C(F)(F)F)cc1)C(CN1CCCC1)c1cccc(O)c1 (racemic),68,230
